The record followed here is PubChem BioAssay (NCI).

Structures are written as SMILES. The entries are a selection whose mix differs from that of the whole data set.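 48-hour exposure, single concentration, 96-well plates; percent growth endpoint where 0 means no net growth. Active: below 10.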 Activity calls are given as the source filed them.

In this experiment the test system is MDA-MB-468 breast. Kind of experiment: NCI-60 one-dose screen, 48 h (100 = growth as untreated, 0 = no growth, -100 = all killed). As to conditions: 10 µM unless noted.
As to `CN1C(=O)N(C)P12(Cl)N(C)C(=O)N2C`, the growth was inactive: 107%.
In the case of `Cc1ccc(NCCCl)c2c(=O)c3ccccc3sc12` it was inactive: 98%; in that of `COC1OC(CNCCCl)C2OC(C)(C)OC12` (stereo not given), inactive: 96.4%.
In the case of `COC(=O)C1(C)COP(=O)(N2CCCCCC2)OC1` (stereo not given) it was inactive: 115%; in that of `Cn1c(COc2ccc([N+](=O)[O-])cc2[N+](=O)[O-])cnc1[N+](=O)[O-]`, inactive: 107%; in that of `CC(C)c1nc(Nc2ccccc2)n(P(=O)(N(C)C)N(C)C)n1`, inactive: 112%.
Regarding `Nc1ccc(CCCCOc2ccccc2)cc1`, the growth was inactive: 48.5%.
With `ClP1(Cl)=NP(Cl)(Cl)=NP(c2ccccc2)(c2ccccc2)=N1`, the growth was inactive: 111%.
The result for `CCCN(CCCl)C1c2ccccc2-c2ccccc21` reads inactive: 106%.
In the case of `O=[As](O)(O)c1cccnc1` it was inactive: 107%.
In the case of `Cc1ccc(SP(=O)(CCl)N(CCCl)CCCl)cc1` (stereo not given) it was inactive: 95.6%; in that of `CCCOP(=S)(Nc1nc(N)cc(=O)[nH]1)OCCC`, inactive: 87.2%; in that of `O=P1(N(CCCl)CCCl)OCCCN1CCCl` (stereo not given), inactive: 104%.
Consider `O=P(O)(NCCCO)N(CCCl)CCCl`, for which the growth was inactive: 97%.
In the case of `CC1(CCC2(C)N=C(NN=C(CCl)CCl)SP2(=O)Nc2ncccn2)N=C(NN=C(CCl)CCl)SP1(=O)Nc1ncccn1` (stereo not given) it was inactive: 95.7% [100 µM]; in that of `COC(=O)C1(C)COP(=O)(N2CCCC2)OC1` (stereo not given), inactive: 101%; in that of `O=Cc1sc(N(CCCl)CCCl)nc1Cl`, inactive: 109%.
Turning to `S=P(Cl)(N1CCCCCC1)N1CC1` (stereo not given), the growth is inactive: 88.7%.
The result for `O=[As](O)(c1ccccc1)c1ccc(O)cc1` reads inactive: 110%; that for `CSc1ccc(Nc2c([N+](=O)[O-])cc([N+](=O)[O-])cc2[N+](=O)[O-])cc1`, active: -9.71%.
In the case of `O=C(O)CNc1ccc([As](=O)(O)O)cc1` it was inactive: 100%; in that of `O=C(O)COc1ccc([As](=O)(O)O)cc1[N+](=O)[O-]`, inactive: 89.5%.
In the case of `CCCCOP(=O)(OCCCC)N1CCCC1C(=O)O` (stereo not given) it was inactive: 106%.
For the molecule `COc1ccc(N)c([N+](=O)[O-])c1[N+](=O)[O-]`, the growth was inactive: 92.6%.
The result for `NC(=S)N/N=C/c1ccc(N(CCF)CCCl)cc1` reads inactive: 88.2%.
The result for `ClCCN1c2ccccc2Oc2ccccc21` reads inactive: 106%.
The result for `COc1ccc(C2N=C(NN=C(CCl)CCl)SP2(=O)Nc2ncccn2)c(OC)c1` (stereo not given) reads inactive: 92.9% [100 µM]; that for `CCOP(=O)(NC1CCCCC1)OCC`, inactive: 111%.
Turning to `CN(CCCl)CCC(=O)c1ccccc1`, the growth is inactive: 76.7%.
In the case of `O=C(CNc1ccc([N+](=O)[O-])c([N+](=O)[O-])c1)n1cnc2ccc([N+](=O)[O-])cc21` it was inactive: 110%; in that of `CN(C)P1(Cl)=NP(Cl)(N(C)C)=NP(Cl)(N(C)C)=N1` (stereo not given), inactive: 106%.
The result for `OC(CNCCCl)C(O)C(O)C(O)CNCCCl` (stereo not given) reads inactive: 96.5%; that for `O=[N+]([O-])N1CCCS1(=O)=O`, inactive: 99.7%.
Turning to `O=C(O)c1ccccc1[As](=O)(O)O`, the growth is inactive: 97.8%.
The result for `CCc1cc(O)c([N+](=O)[O-])c(C)c1[N+](=O)[O-]` reads inactive: 114%.
